Literature values in PMC3495162 (Journal of medicinal chemistry, 2012).

By UniProt entry, the sequences of proteins in these tests, tags left out.
UniProt P10415, whole entry: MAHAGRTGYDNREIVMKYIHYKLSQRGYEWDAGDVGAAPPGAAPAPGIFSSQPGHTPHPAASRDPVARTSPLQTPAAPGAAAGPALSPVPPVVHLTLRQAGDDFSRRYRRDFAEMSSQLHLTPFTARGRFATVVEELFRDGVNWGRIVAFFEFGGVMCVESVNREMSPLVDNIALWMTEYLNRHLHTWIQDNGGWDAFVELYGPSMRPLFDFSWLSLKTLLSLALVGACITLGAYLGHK

Target: Bcl-2 (Homo sapiens, UniProt P10415)
Conditions: read-out: Bcl-2 Ki; cited from earlier work

## CC1(C)CCC(c2ccc(Cl)cc2)=C(CN2CCN(c3ccc(C(=O)NS(=O)(=O)c4ccc(N[C@H](CCN5CCOCC5)CSc5ccccc5)c(S(=O)(=O)C(F)(F)F)c4)cc3)CC2)C1 [Compound 2]
  Ki: < 1 nM
